Values quoted from earlier work in patent US20020165141A1, “Methods for promoting dendritic cell proliferation or differentiation” (priority 2000, published 2002).

Target: T1, AT2 receptor (Homo sapiens, UniProt P50052)
T1 sequence (P50052 1-363): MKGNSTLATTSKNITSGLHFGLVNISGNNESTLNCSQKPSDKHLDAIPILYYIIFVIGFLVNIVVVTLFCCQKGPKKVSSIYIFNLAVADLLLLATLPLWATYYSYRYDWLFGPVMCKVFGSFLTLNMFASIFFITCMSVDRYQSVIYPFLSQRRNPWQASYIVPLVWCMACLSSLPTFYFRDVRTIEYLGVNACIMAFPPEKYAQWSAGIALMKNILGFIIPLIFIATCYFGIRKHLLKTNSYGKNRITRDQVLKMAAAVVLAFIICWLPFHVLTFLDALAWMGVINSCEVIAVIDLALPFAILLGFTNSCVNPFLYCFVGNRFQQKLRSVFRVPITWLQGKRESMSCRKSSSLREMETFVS
Conditions: experimental models of the literature; cited from earlier work

Asp-Arg-Val-Tyr-Ile-Xaa-Pro-Phe [p-aminophenylalanine6-AII]
binding characteristics: comparable to AT2 antagonists
